The assay concerns Mitochondrial Membrane Potential.

This is an account of results in PMC12392461, “Beyond Estrogenicity: A Comparative Assessment of Bisphenol A and Its Alternatives in In Vitro Assays Questions Safety of Replacements” (Environmental Science & Technology, 2025).

Bounds are passed on as bounds.

As for `O=S(=O)(c1ccc(O)cc1)c1ccc(O)cc1` [BPS, 4,4'-Sulfonyldiphenol], the “SR (MMP inhibition)” value was greater than 10.
